Laboratory results published in ChEMBL document CHEMBL1124221.
pKi: −log10 of the molar value. Values joined by “and” are separate entries in the source; they are usually repeats but may differ in a detail not shown here. Equal values may be shown once.

By UniProt entry, the sequences of proteins in these tests, tags left out. Where a name states a change or a piece, a line headed by the entry shows the natural chain unless it says otherwise.
UniProt P41144: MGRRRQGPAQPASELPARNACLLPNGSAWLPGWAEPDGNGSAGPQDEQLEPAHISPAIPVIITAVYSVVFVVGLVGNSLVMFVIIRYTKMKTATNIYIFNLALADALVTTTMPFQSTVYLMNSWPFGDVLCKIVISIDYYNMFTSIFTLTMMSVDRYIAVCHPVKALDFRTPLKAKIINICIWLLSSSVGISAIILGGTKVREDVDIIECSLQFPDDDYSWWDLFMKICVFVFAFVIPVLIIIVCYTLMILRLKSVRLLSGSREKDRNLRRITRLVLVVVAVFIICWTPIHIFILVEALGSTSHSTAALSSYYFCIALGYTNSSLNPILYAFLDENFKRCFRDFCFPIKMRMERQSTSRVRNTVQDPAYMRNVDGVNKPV
UniProt P97266, whole entry, looked up: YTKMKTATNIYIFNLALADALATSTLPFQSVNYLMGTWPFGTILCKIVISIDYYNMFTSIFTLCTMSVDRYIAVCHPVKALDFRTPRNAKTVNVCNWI

Legend:
[1] = target: Kappa-type opioid receptor (Cavia porcellus, UniProt P41144); experiment: Binding affinity for the Opioid receptor kappa 1
Mu-type opioid receptor = Mu-type opioid receptor (Cavia porcellus, UniProt P97266); experiment: Binding affinity for the Opioid receptor mu 1

Structure (SMILES) | pKi [1] | pKi (Mu-type opioid receptor)
CN(C(=O)Cc1ccc(Cl)c(Cl)c1)C1CCCCC1N1CCCC1 (stereo not drawn) | 8.00 | 6.06
CCN(CC)[C@@H]1CCCC[C@H]1N(C)C(=O)Cc1cccc2sccc12 | 5.74 | 6.46
CN(C(=O)Cc1cccc2sccc12)[C@@H]1CCCC[C@H]1N1CCCCCC1 | 7.40 | 6.09
CN(CCc1cccs1)[C@@H]1CCCC[C@H]1N(C)C(=O)Cc1cccc2sccc12 | 7.09 | 7.09
CN(C(=O)Cc1c[nH]c2ccccc12)[C@@H]1CCCC[C@H]1N1CCCC1 | 7.13 | 5.54
C=CCN(C)[C@@H]1CCCC[C@H]1N(C)C(=O)Cc1cccc2sccc12 | 7.28 | 6.68
CN(C(=O)Cc1cccs1)[C@@H]1CCCC[C@H]1N1CCCC1 | 6.14 | 4.74
CN(CCc1ccccc1)[C@@H]1CCCC[C@H]1N(C)C(=O)Cc1cccc2sccc12 | 7.52 | 7.59
CN(C(=O)Cc1cccc2sccc12)[C@@H]1CCCC[C@H]1N1CCCCC1 | 6.60 | 5.62
CN(C(=O)Cc1cccc2occc12)[C@@H]1CCCC[C@H]1N1CCCCCC1 | 7.54 | 5.46
CN(CC1CC1)[C@@H]1CCCC[C@H]1N(C)C(=O)Cc1cccc2sccc12 | 6.70 | 6.72
CN(C(=O)Cc1cccc2occc12)[C@@H]1CCCC[C@H]1N1CCCC1 | – | 5.48 and 5.80 and 5.85
CC[C@@]12CCN(CC3CC3)C(C(=O)c3ccc(O)cc31)[C@@H]2C | – | 8.77
CN(C(=O)Cc1ccccc1)[C@H]1CC[C@@]2(CCCO2)C[C@@H]1N1CCCC1 | 8.14 | 7.28
CN(C(=O)Cc1ccc(Cl)c(Cl)c1)C1CCC2(CCCO2)CC1N1CCCC1 (stereo not drawn) | 7.77 | 5.19
